According to paper PMC8782417, “A PDK-1 allosteric agonist neutralizes insulin signaling derangements and beta-amyloid toxicity in neuronal cells and in vitro” (PLoS ONE, 2022):

Target: T1, FAM-labeled Aβ42 peptide (carboxy-fluorescein conjugated to the N' terminus), prepared as ADDL oligomers (carboxy-fluorescein (FAM) on the N-terminus; the labelled peptide was mixed with wild type Aβ42 in a 1:2 molar ratio)
T1 construct: Aβ42, the 42-residue β-amyloid peptide cut from the amyloid precursor protein (APP); Mixed with unlabelled wild type Aβ42 (1:2 molar ratio), then incubated at 4 °C for 24 hrs to oligomerise (ADDLs); also called FAM-Aβ42; FAM tagged-Aβ; source: bought: Anaspec (FAM-Aβ42); Aβ peptides from BioSource
Assay: fluorescence polarisation; in solution; FAM-Aβ42 probe (ADDL oligomers) fixed at 200 nM, recombinant PDK-1 or Akt-1 titrated 0-10 μM (Akt 0 to 12.5 μM) until saturation; 30 min, 25°C; 100 mM NaCl, 20 mM phosphate pH7.4, 2 mM DTT, 0.1% BSA, 2% DMSO; 2 experiments each
Details: both partners purified

IC50: ~2000 nM
B1: Recombinant human Akt1 (inactive) (enzyme, UniProt P31749 1-480, looked up)
chain: MSDVAIVKEGWLHKRGEYIKTWRPRYFLLKNDGTFIGYKERPQDVDQREAPLNNFSVAQCQLMKTERPRPNTFIIRCLQWTTVIERTFHVETPEEREEWTTAIQTVADGLKKQEEEEMDFRSGSPSDNSGAEEMEVSLAKPKHRVTMNEFEYLKLLGKGTFGKVILVKEKATGRYYAMKILKKEVIVAKDEVAHTLTENRVLQNSRHPFLTALKYSFQTHDRLCFVMEYANGGELFFHLSRERVFSEDRARFYGAEIVSALDYLHSEKNVVYRDLKLENLMLDKDGHIKITDFGLCKEGIKDGATMKTFCGTPEYLAPEVLEDNDYGRAVDWWGLGVVMYEMMCGRLPFYNQDHEKLFELILMEEIRFPRTLGPEAKSLLSGLLKKDPKQRLGGGSEDAKEIMQHRFFAGIVWQHVYEKKLSPPFKPQVTSETDTRYFDEEFTAQMITITPPDQDDSMECVDSERRPHFPQFSYSASGTA
notes: printed size 60 kDa; Commercial protein; also called PKBα; Protein kinase B; source: bought: Amsbio
